Measurements from PubChem BioAssay (NCI).
The list shows a part of the results, in another mix than the full data.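 The test compound was applied at a single concentration to cells in 96-well plates for 48 hours, and percent growth was recorded.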 Activity calls are given as the source filed them. The calls were made as follows: active = growth percent below 10; inactive = the rest.

Experiments:
Test in all cases: NCI-60 one-dose screen, 48 h (100 = growth as untreated, 0 = no growth, -100 = all killed)
Settings in all cases: 10 µM unless noted
[1] = tested on: SK-MEL-2 melanoma
[2] = tested on: EKVX NSCLC
[3] = tested on: SN12C renal
[4] = tested on: UO-31 renal
[5] = tested on: TK-10 renal
[6] = tested on: ACHN renal
[7] = tested on: CAKI-1 renal
[8] = tested on: A498 renal
[9] = tested on: HL-60(TB) leukemia
[10] = tested on: CCRF-CEM leukemia

Row | SMILES | growth [1] | growth [2] | growth [3] | growth [4] | growth [5] | growth [6] | growth [7] | growth [8] | growth [9] | growth [10]
1 | Cc1ccc(Sc2ccc([N+](=O)[O-])cc2[N+](=O)[O-])c([N+](=O)[O-])c1 | active: -1.94% | inactive: 62.3% | inactive: 24% | inactive: 36.4% | inactive: 47.1% | inactive: 28.3% | active: 6.84% | inactive: 81.3% | active: -24.7% | active: 2.93%
2 | CCOC(=O)NC(c1ccccc1[N+](=O)[O-])P(=O)(O)Nc1ncn[nH]1 (stereo not given) | inactive: 106% | inactive: 96.4% | inactive: 106% | inactive: 73.4% | inactive: 121% | inactive: 105% | inactive: 97.8% | inactive: 132% | inactive: 150% | inactive: 106%
3 | O=P(O)(NCCCO)N(CCCl)CCCl | inactive: 86.3% | inactive: 95.2% | inactive: 98.5% | inactive: 80% | inactive: 97.9% | inactive: 97.1% | inactive: 97.5% | inactive: 83.5% | inactive: 92.5% | inactive: 108%
4 | S=P1(S)SC(Nc2ccccc2)CN1c1ccccc1 (stereo not given) | inactive: 96.3% | inactive: 94.5% | inactive: 99.1% | inactive: 66.3% | inactive: 117% | inactive: 98.2% | inactive: 78.8% | inactive: 94.3% | inactive: 101% | inactive: 100%
5 | CCCCCCCCCCNP(=S)(Cl)Cl | inactive: 106% | inactive: 103% | inactive: 94.2% | inactive: 92.5% | inactive: 96.5% | inactive: 99.2% | inactive: 96.2% | inactive: 79.9% | inactive: 93.3% | inactive: 93.3%
6 | Nc1nnc(N)nn1 | inactive: 111% | inactive: 98.5% | inactive: 110% | inactive: 90.9% | inactive: 119% | inactive: 104% | inactive: 95.7% | inactive: 69.6% | inactive: 137% | inactive: 107%
7 | Cc1ccccc1CN(CCCl)Cc1ccccc1C | inactive: 109% | inactive: 99.4% | inactive: 97.1% | inactive: 89.2% | inactive: 109% | inactive: 107% | inactive: 96.6% | inactive: 91.4% | inactive: 99.6% | inactive: 92.8%
8 | c1cc(-c2nn[nH]n2)ccc1-c1nn[nH]n1 | inactive: 100% | inactive: 91.3% | inactive: 95.6% | inactive: 88.6% | inactive: 109% | inactive: 99.3% | inactive: 96.8% | inactive: 90% | inactive: 88.7% | inactive: 93.7%
9 | O=[N+]([O-])c1ccc(Oc2cccc(Oc3ccc([N+](=O)[O-])cc3[N+](=O)[O-])c2)c([N+](=O)[O-])c1 | inactive: 78% | inactive: 98.5% | inactive: 64.1% | inactive: 53.1% | inactive: 100% | inactive: 89.9% | inactive: 82.6% | inactive: 96.5% | inactive: 90.2% | inactive: 14.8%
10 | CN(C)C(=O)NP(=O)(N(C)C)N(C)C | inactive: 114% | inactive: 98.7% | inactive: 99.3% | inactive: 92.4% | inactive: 102% | inactive: 96.6% | inactive: 93.1% | inactive: 109% | inactive: 103% | inactive: 103%
11 | Cc1ccc(S(=O)(=O)n2cc(C3(O)CC(CC#N)OC3=O)c3cc(Br)ccc32)cc1 (stereo not given) | inactive: 113% | inactive: 94.5% | inactive: 103% | inactive: 108% | inactive: 134% | inactive: 109% | inactive: 96.9% | inactive: 103% | inactive: 75.5% | inactive: 84.6%
12 | O=[As](O)(c1ccc(Cl)cc1)C1CCCCC1O (stereo not given) | inactive: 105% | inactive: 109% | inactive: 96% | inactive: 72.1% | inactive: 117% | inactive: 103% | inactive: 93.9% | inactive: 107% | inactive: 42.1% | inactive: 100%
13 | COc1ccc(C2N=C(NN=C(CCl)CCl)SP2(=O)Nc2ncccn2)c(OC)c1 (stereo not given) | inactive: 118% [100 µM] | inactive: 107% [100 µM] | inactive: 90.3% [100 µM] | inactive: 76.5% [100 µM] | inactive: 156% [100 µM] | inactive: 94.2% [100 µM] | inactive: 79.3% [100 µM] | inactive: 111% [100 µM] | inactive: 99.2% [100 µM] | inactive: 101% [100 µM]
